Data reported in patent publication US20090099157A1, “TETRAHYDRO-PYRAZOLO-PYRIDINE THIOETHER MODULATORS OF CATHEPSIN S” (priority 2007, published 2009).

Chains of the proteins cited; added tags and fusions are not shown. Residues count along the entry.
UniProt P25774, 115-331: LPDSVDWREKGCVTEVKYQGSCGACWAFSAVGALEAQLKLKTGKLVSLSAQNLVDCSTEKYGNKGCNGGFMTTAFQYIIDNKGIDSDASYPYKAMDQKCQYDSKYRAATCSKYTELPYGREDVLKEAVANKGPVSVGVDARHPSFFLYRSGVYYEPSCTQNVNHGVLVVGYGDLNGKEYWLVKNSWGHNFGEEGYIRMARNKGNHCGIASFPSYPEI

target: Recombinant human cathepsin S (CatS) (Homo sapiens, UniProt P25774); test: biochemical

Q: For `CN(C)C1CCN(CC(O)Cn2nc(-c3ccc(C(F)(F)F)c(SCCN4CCCCC4)c3)c3c2CCN(S(C)(=O)=O)C3)CC1` (stereo not shown) [Example 162, 1-[4-(Dimethylamino)piperidin-1-yl]-3-[5-(methylsulfonyl)-3-{3-[(2-piperidin-1-ylethyl)sulfanyl]-4-(trifluoromethyl)phenyl}-4,5,6,7-tetrahydro-1H-pyrazolo[4,3-c]pyridin-1-yl]propan-2-ol], which IC50 is on record?
A: 710 nM

Q: `C[C@H](O)C(=O)N1CCc2c(c(-c3ccc(C(F)(F)F)c(SCCN4CCC(F)CC4)c3)nn2C[C@@H](O)CN2CCCCC2)C1` [Example 371, (2S)-1-{3-[3-{[2-(4-Fluoropiperidin-1-yl)ethyl]sulfanyl}-4-(trifluoromethyl)phenyl]-1-[(2S)-2-hydroxy-3-piperidin-1-ylpropyl]-1,4,6,7-tetrahydro-5H-pyrazolo[4,3-c]pyridin-5-yl}-1-oxopropan-2-ol] was tested. Which IC50 did it give?
A: 250 nM

Q: With `CS(=O)(=O)N1CCc2c(c(-c3ccc(C(F)(F)F)c(SCCN4CCOCC4)c3)nn2CC(O)CN2CCc3n[nH]cc3C2)C1` (stereo not shown) [Example 527, 1-[5-(Methylsulfonyl)-3-{3-[(2-morpholin-4-ylethyl)sulfanyl]-4-(trifluoromethyl)phenyl}-4,5,6,7-tetrahydro-1H-pyrazolo[4,3-c]pyridin-1-yl]-3-(2,4,6,7-tetrahydro-5H-pyrazolo[4,3-c]pyridin-5-yl)propan-2-ol] as the compound, how does the IC50 read?
A: 570 nM

Q: How did the IC50 turn out when `CNCCSc1cc(-c2nn(CCCN3CCC(N4CCCC4=O)CC3)c3c2CN(S(C)(=O)=O)CC3)ccc1C(F)(F)F` [Example 30, 1-[1-(3-{5-Methanesulfonyl-3-[3-(2-methylamino-ethylsulfanyl)-4-trifluoromethyl-phenyl]-4,5,6,7-tetrahydro-pyrazolo[4,3-c]pyridin-1-yl}-propyl)-piperidin-4-yl]-pyrrolidin-2-one] was run?
A: 800 nM

Q: Which IC50 does the source give for `CCOc1ccccc1N1CCN(C[C@H](O)Cn2nc(-c3ccc(C(F)(F)F)c(SCCN4CCC(F)CC4)c3)c3c2CCNC3)CC1` [Example 609, (2S)-1-{4-[2-(Ethyloxy)phenyl]piperazin-1-yl}-3-{3-[3-{[2-(4-fluoropiperidin-1-yl)ethyl]sulfanyl}-4-(trifluoromethyl)phenyl]-4,5,6,7-tetrahydro-1H-pyrazolo[4,3-c]pyridin-1-yl}propan-2-ol] here?
A: 340 nM

Q: With `CS(=O)(=O)N1CCc2c(c(-c3ccc(C(F)(F)F)c(SCCN4CCC(F)CC4)c3)nn2C[C@H](O)CN2CCC(c3ccccn3)CC2)C1` [Example 734, (2R)-1-{3-[3-{[2-(4-Fluoropiperidin-1-yl)ethyl]sulfanyl}-4-(trifluoromethyl)phenyl]-5-(methylsulfonyl)-4,5,6,7-tetrahydro-1H-pyrazolo[4,3-c]pyridin-1-yl}-3-(4-pyridin-2-ylpiperidin-1-yl)propan-2-ol] as the compound, how does the IC50 read?
A: 15 nM

Q: With `CC1CCN(C[C@H](O)Cn2nc(-c3ccc(C(F)(F)F)c(SCCN4CCC(F)CC4)c3)c3c2CCNC3)CC1` [Example 304, (2S)-1-{3-[3-{[2-(4-Fluoropiperidin-1-yl)ethyl]sulfanyl}-4-(trifluoromethyl)phenyl]-4,5,6,7-tetrahydro-1H-pyrazolo[4,3-c]pyridin-1-yl}-3-(4-methylpiperidin-1-yl)propan-2-ol] as the compound, how does the IC50 read?
A: 2860 nM

Q: Which IC50 does the source give for `CCOC(=O)CSc1cc(-c2nn(CC(O)CN3CCC(N4CCCC4=O)CC3)c3c2CN(S(C)(=O)=O)CC3)ccc1C(F)(F)F` (stereo not shown) [Example 63, [5-(1-{2-Hydroxy-3-[4-(2-oxo-pyrrolidin-1-yl)-piperidin-1-yl]-propyl}-5-methanesulfonyl-4,5,6,7-tetrahydro-1H-pyrazolo[4,3-c]pyridin-3-yl)-2-trifluoromethyl-phenylsulfanyl]-acetic acid ethyl ester] here?
A: 640 nM

Q: For `Oc1ccccc1N1CCN(C[C@H](O)Cn2nc(-c3ccc(C(F)(F)F)c(SCCN4CCC(F)CC4)c3)c3c2CCNC3)CC1` [Example 478, 2-{4-[(2S)-3-{3-[3-{[2-(4-Fluoropiperidin-1-yl)ethyl]sulfanyl}-4-(trifluoromethyl)phenyl]-4,5,6,7-tetrahydro-1H-pyrazolo[4,3-c]pyridin-1-yl}-2-hydroxypropyl]piperazin-1-yl}phenol], which IC50 is on record?
A: 350 nM

Q: With `CC(C)NC(=O)N1CCc2c(c(-c3ccc(C(F)(F)F)c(SCCN4CCC(F)CC4)c3)nn2C[C@@H](O)CN2CCCCC2)C1` [Example 434, 3-[3-{[2-(4-Fluoropiperidin-1-yl)ethyl]sulfanyl}-4-(trifluoromethyl)phenyl]-1-[(2S)-2-hydroxy-3-piperidin-1-ylpropyl]-N-(1-methylethyl)-1,4,6,7-tetrahydro-5H-pyrazolo[4,3-c]pyridine-5-carboxamide] as the compound, how does the IC50 read?
A: 540 nM

Q: Which IC50 does the source give for `CS(=O)(=O)N1CCc2c(c(-c3ccc(C(F)(F)F)c(SCCN4CCCC(F)C4)c3)nn2C[C@@H](O)CN2CCCCCC2)C1` (stereo partly drawn) [Example 470, (2S)-1-Azepan-1-yl-3-{3-[3-{[2-(3-fluoropiperidin-1-yl)ethyl]sulfanyl}-4-(trifluoromethyl)phenyl]-5-(methylsulfonyl)-4,5,6,7-tetrahydro-1H-pyrazolo[4,3-c]pyridin-1-yl}propan-2-ol] here?
A: 450 nM

Q: How did the IC50 turn out when `CN(C)c1ccc2c(n1)n(C1CCN(CC(O)Cn3nc(-c4ccc(C(F)(F)F)c(SCCN5CCCCC5)c4)c4c3CCNC4)CC1)c(=O)n2C` (stereo not shown) [Example 229, 5-(Dimethylamino)-3-{1-[2-hydroxy-3-(3-{3-[(2-piperidin-1-ylethyl)sulfanyl]-4-(trifluoromethyl)phenyl}-4,5,6,7-tetrahydro-1H-pyrazolo[4,3-c]pyridin-1-yl)propyl]piperidin-4-yl}-1-methyl-1,3-dihydro-2H-imidazo[4,5-b]pyridin-2-one] was run?
A: 130 nM

Q: How did the IC50 turn out when `CC(=O)c1ccc(N2CCN(CC(O)Cn3nc(-c4ccc(C(F)(F)F)c(SCCN5CCCCC5)c4)c4c3CCNC4)CC2)cc1` (stereo not shown) [Example 534, 1-(4-{4-[2-Hydroxy-3-(3-{3-[(2-piperidin-1-ylethyl)sulfanyl]-4-(trifluoromethyl)phenyl}-4,5,6,7-tetrahydro-1H-pyrazolo[4,3-c]pyridin-1-yl)propyl]piperazin-1-yl}phenyl)ethanone] was run?
A: 1060 nM

Q: Which IC50 does the source give for `Oc1ccc(N2CCN(CC(O)Cn3nc(-c4ccc(C(F)(F)F)c(SCCN5CCCCC5)c4)c4c3CCNC4)CC2)cc1` (stereo not shown) [Example 384, 4-{4-[2-Hydroxy-3-(3-{3-[(2-piperidin-1-ylethyl)sulfanyl]-4-(trifluoromethyl)phenyl}-4,5,6,7-tetrahydro-1H-pyrazolo[4,3-c]pyridin-1-yl)propyl]piperazin-1-yl}phenol] here?
A: 2230 nM

Q: With `CC(=O)N1CCc2c(c(-c3ccc(C(F)(F)F)c(SCC(=O)N4CCCC4)c3)nn2CC(O)CN2Cc3ccccc3C2)C1` (stereo not shown) [Example 339, 1-(5-Acetyl-3-{3-[(2-oxo-2-pyrrolidin-1-ylethyl)sulfanyl]-4-(trifluoromethyl)phenyl}-4,5,6,7-tetrahydro-1H-pyrazolo[4,3-c]pyridin-1-yl)-3-(1,3-dihydro-2H-isoindol-2-yl)propan-2-ol] as the compound, how does the IC50 read?
A: 170 nM

Q: `CS(=O)(=O)N1CCc2c(c(-c3ccc(C(F)(F)F)c(SCCN4CCCC(CO)C4)c3)nn2CC(O)CN2CCC(C(=O)N3CCCCC3)CC2)C1` (stereo not shown) [Example 862, 1-{3-[3-({2-[3-(Hydroxymethyl)piperidin-1-yl]ethyl}sulfanyl)-4-(trifluoromethyl)phenyl]-5-(methylsulfonyl)-4,5,6,7-tetrahydro-1H-pyrazolo[4,3-c]pyridin-1-yl}-3-[4-(piperidin-1-ylcarbonyl)piperidin-1-yl]propan-2-ol] was tested. Which IC50 did it give?
A: 130 nM

Q: For `CC(=O)NC1CCN(C[C@H](O)Cn2nc(-c3ccc(C(F)(F)F)c(SCCN4CCC5CCCCC5C4)c3)c3c2CCN(S(C)(=O)=O)C3)CC1` (stereo partly drawn) [Example 796, N-{1-[(2S)-2-Hydroxy-3-{5-(methylsulfonyl)-3-[3-{[2-(octahydroisoquinolin-2(1H)-yl)ethyl]sulfanyl}-4-(trifluoromethyl)phenyl]-4,5,6,7-tetrahydro-1H-pyrazolo[4,3-c]pyridin-1-yl}propyl]piperidin-4-yl}acetamide], which IC50 is on record?
A: 35 nM

Q: `CS(=O)(=O)N1CCc2c(c(-c3ccc(C(F)(F)F)c(SCC(=O)N4CCC(O)C4)c3)nn2CCCN2CCC(N3CCCC3=O)CC2)C1` (stereo not shown) [Example 75, 1-{1-[3-(3-{3-[2-(3-Hydroxy-pyrrolidin-1-yl)-2-oxo-ethylsulfanyl]-4-trifluoromethyl-phenyl}-5-methanesulfonyl-4,5,6,7-tetrahydro-pyrazolo[4,3-c]pyridin-1-yl)-propyl]-piperidin-4-yl}-pyrrolidin-2-one] was tested. Which IC50 did it give?
A: 90 nM

Q: Which IC50 does the source give for `CC(=O)NC1CCN(CC(O)Cn2nc(-c3ccc(C(F)(F)F)c(SCCN4CCOCC4)c3)c3c2CCN(S(C)(=O)=O)C3)C1` (stereo not shown) [Example 551, N-(1-{2-Hydroxy-3-[5-(methylsulfonyl)-3-{3-[(2-morpholin-4-ylethyl)sulfanyl]-4-(trifluoromethyl)phenyl}-4,5,6,7-tetrahydro-1H-pyrazolo[4,3-c]pyridin-1-yl]propyl}pyrrolidin-3-yl)acetamide] here?
A: 700 nM

Q: With `Cn1c(=O)n(C2CCN(CCCn3nc(-c4ccc(C(F)(F)F)c(SCC(=O)N5CCOCC5)c4)c4c3CCN(S(C)(=O)=O)C4)CC2)c2cc(Cl)ccc21` [Example 889, 5-Chloro-1-methyl-3-(1-{3-[5-(methylsulfonyl)-3-{3-[(2-morpholin-4-yl-2-oxoethyl)sulfanyl]-4-(trifluoromethyl)phenyl}-4,5,6,7-tetrahydro-1H-pyrazolo[4,3-c]pyridin-1-yl]propyl}piperidin-4-yl)-1,3-dihydro-2H-benzimidazol-2-one] as the compound, how does the IC50 read?
A: 20 nM

Q: For `CS(=O)(=O)N1CCc2c(c(-c3ccc(C(F)(F)F)c(SCCN4CC[C@H](F)C4)c3)nn2C[C@@H](O)CN2CC3CCCC3C2)C1` (stereo partly drawn) [Example 454, (2S)-1-{3-[3-({2-[(3S)-3-Fluoropyrrolidin-1-yl]ethyl}sulfanyl)-4-(trifluoromethyl)phenyl]-5-(methylsulfonyl)-4,5,6,7-tetrahydro-1H-pyrazolo[4,3-c]pyridin-1-yl}-3-(hexahydrocyclopenta[c]pyrrol-2(1H)-yl)propan-2-ol], which IC50 is on record?
A: 650 nM

Q: How did the IC50 turn out when `CN(C)c1ccc2c(n1)n(C1CCN(CC(O)Cn3nc(-c4ccc(C(F)(F)F)c(SCCN5CCCCC5)c4)c4c3CCN(S(C)(=O)=O)C4)CC1)c(=O)n2C` (stereo not shown) [Example 154, 5-(Dimethylamino)-3-(1-{2-hydroxy-3-[5-(methylsulfonyl)-3-{3-[(2-piperidin-1-ylethyl)sulfanyl]-4-(trifluoromethyl)phenyl}-4,5,6,7-tetrahydro-1H-pyrazolo[4,3-c]pyridin-1-yl]propyl}piperidin-4-yl)-1-methyl-1,3-dihydro-2H-imidazo[4,5-b]pyridin-2-one] was run?
A: 10 nM
